Test results from US20240100134A1.

Chains of the proteins cited; added tags and fusions are not shown. Chains listed by the source or under a name are the forms on record and can include a tag or linker.
recombinant plasminogen-linker-Fc fusion (human plasminogen, QA linker GQAGQAS, Fc) (human), one chain, as listed by the source limits assumed: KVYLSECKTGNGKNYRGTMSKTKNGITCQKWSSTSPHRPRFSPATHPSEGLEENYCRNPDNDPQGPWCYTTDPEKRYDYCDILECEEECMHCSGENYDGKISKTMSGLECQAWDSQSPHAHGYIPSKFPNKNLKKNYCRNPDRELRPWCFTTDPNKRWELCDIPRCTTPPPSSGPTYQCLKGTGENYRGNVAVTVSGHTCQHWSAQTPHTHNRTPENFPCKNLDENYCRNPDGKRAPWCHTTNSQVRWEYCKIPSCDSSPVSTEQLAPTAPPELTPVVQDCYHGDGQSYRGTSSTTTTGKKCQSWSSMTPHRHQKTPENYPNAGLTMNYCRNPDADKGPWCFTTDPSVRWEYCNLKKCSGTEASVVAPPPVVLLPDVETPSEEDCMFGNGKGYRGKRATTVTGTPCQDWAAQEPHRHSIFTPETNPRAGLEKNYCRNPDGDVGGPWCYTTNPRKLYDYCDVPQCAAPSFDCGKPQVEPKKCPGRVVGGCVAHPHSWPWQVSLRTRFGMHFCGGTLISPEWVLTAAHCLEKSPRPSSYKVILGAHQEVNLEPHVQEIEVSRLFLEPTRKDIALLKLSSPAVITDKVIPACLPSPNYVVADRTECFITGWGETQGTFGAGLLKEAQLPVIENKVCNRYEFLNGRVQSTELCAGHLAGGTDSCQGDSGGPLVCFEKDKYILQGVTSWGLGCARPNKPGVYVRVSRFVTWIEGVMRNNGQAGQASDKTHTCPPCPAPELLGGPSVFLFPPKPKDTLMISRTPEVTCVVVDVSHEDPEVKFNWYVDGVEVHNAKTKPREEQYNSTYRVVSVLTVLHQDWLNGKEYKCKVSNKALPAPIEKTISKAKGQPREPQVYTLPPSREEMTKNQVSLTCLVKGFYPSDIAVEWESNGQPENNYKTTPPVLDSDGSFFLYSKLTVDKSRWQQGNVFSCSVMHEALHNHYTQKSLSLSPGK

Target: recombinant plasminogen-linker-Fc fusion (human plasminogen, QA linker GQAGQAS, Fc) (human)
Experiment: cell-based or functional assay

“urokinase-type plasminogen activator (from UniProt P00749 21-431) (enzyme)” showed a Plg converted to Plm after 120 min (12% SDS-PAGE, Coomassie) of 80%.
